Measurements reported in PubChem BioAssay AID1030 (National Center for Advancing Translational Sciences (NCATS), 2008).
The entries are a selection whose mix differs from that of the whole data set. Inconclusive results are not listed. Activity calls are given as the source filed them. Calls come from the whole dose curve; as a rule, active = well fitted inhibition curve with a large enough effect (not every such curve was filed as active); inconclusive = small, poorly fitted or top-dose-only effect, or another doubt; inactive = no such curve, though single readings can be large or run the other way.

The chains behind the UniProt entries cited, without tags or fusion partners. Where a name states a change or a piece, a line headed by the entry shows the natural chain unless it says otherwise.
UniProt P00352: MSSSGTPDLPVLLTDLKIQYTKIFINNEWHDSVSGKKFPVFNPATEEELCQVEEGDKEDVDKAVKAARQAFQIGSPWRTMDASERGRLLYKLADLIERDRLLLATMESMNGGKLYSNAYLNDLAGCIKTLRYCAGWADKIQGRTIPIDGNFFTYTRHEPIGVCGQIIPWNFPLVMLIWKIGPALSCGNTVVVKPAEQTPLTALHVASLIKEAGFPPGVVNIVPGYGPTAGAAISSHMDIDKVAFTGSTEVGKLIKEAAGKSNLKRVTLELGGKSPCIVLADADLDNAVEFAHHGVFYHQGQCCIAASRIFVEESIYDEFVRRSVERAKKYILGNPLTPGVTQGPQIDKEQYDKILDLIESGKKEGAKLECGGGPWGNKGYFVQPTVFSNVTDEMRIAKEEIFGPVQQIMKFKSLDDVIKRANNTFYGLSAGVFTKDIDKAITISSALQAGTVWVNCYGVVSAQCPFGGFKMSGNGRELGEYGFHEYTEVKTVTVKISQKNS

The compounds below were run against Aldehyde dehydrogenase 1A1 (Homo sapiens) (UniProt P00352) (assay: qHTS Assay for Inhibitors of Aldehyde Dehydrogenase 1 (ALDH1A1)). Settings: Purified ALDH1A1, NADH fluorescence, propionaldehyde substrate.
Potency is the fitted concentration of half-maximal effect.

Potency, active:
CC[n+]1c(/C=C/N(C)c2ccccc2)oc2ccccc21 31.6 µM
Cn1c2c(c(=O)n(C)c1=O)[C@@]1(C(=O)Nc3ccccc31)C(C#N)=C(N)O2 14.1 µM
CC(C)(C)C(=O)CSc1nc2c(c(-c3cccs3)c1C#N)CCC2 20 µM
